Tested on: CC(=O)O
Test: purified protein
Details: co-substrate ATP, MgCl2 6.6 mM, HEPES 84 mM, 40 °C

Substance | Km [µM] | kcat [s⁻¹] | kcat/Km [M⁻¹ s⁻¹]
EutQ (Salmonella enterica subsp. enterica serovar Typhimurium str. LT2) | 700 ± 200 | 318 | 454000
EutP (Salmonella enterica subsp. enterica serovar Typhimurium str. LT2) | 700 ± 200 | 545 | 778000

— article PMC4857615
